In patent publication US20230218773A1 (priority 2020, published 2023):

Tests used:
[1] = Tissue distribution of free and total MMAE in MIA PaCa2 tumor-bearing mice; format: in vivo; conditions: for free MMAE in the liver and kidney: no statistical difference to MMAE group
Method: (§1) Quantification of MMAE by LC-MS: An Agilent 1260 Infinity liquid chromatography system (G1312B) with an Agilent 6530 Q-TOF mass spectrometer was used to detect the drug MMAE. 5 μL of sample was injected into an Eclipse Plus C18 column (50×2.1 mm, 5 μm) followed by a gradient elution at 0.7 mL/min. […] Electrospray ionization source was used in positive mode. To derive standard curves for MMAE, drug standards were spiked into blank matrix along with internal standard. Samples were then prepared for LC-MS analysis. MMAE was monitored at m/z 740 [M+Na]+, 719 [M+H]+, 371 [M+Na+1-1]^2+ and 360 [M+2H]^2±. Deuterated (D8) MMAE as internal standard was monitored at m/z 748 [M+Na]+, 727 [M+H]+, 375 [M+Na+1-1]^2+ and 364 [M+2H]^2±. The peak area of each drug standard was derived by the peak area of internal standard. The peak area ratios were then plotted as a function of standard concentrations and data points were fitted using linear regression (GraphPad). MMAE concentrations in test samples were quantified using the peak area ratio between MMAE and D8-MMAE and calculated using the standard curves.
(§2) Pharmacokinetics and tissue distribution: Thirty-six mice bearing MIA PaCa2 tumors were equally divided into 4 groups. […] All treatment arms were dosed with an equivalent amount of MMAE at 0.5 mg/kg. At 10 min, 24 h, 48 h, 72 h, 96 h and 168 h post-administration, blood samples were collected from 3 mice in each group through tail vein. Plasma was separated immediately using BD microtainer. At 24 h, 72 h and 168 h after administration, 3 mice from each group were euthanized to collect liver, kidney, and tumor tissue samples. Plasma and tissue samples were stored at −80° C. until further analysis.
(§3) To determine the amount of free MMAE in plasma samples, 1 μL D8-MMAE (250 ng/mL) internal control was added into 10 μL plasma samples and then mixed with 89 μL acetonitrile. The mixture was thoroughly mixed and centrifuged (12,000 rpm, 20 min, 4° C.). The supernatant was collected for LC-MS quantification. To determine free MMAE in mouse tissues, weighed tissues were homogenized with ice-cold PBS containing protease inhibitors (cOmplete™ ULTRA Tablets, Roche) using a tissue homogenizer (Fisher Scientific) to a final concentration of 600 mg/mL. The homogenized suspension was centrifuged at 12,000 rpm for 20 min at 4° C. As an internal control, 1 μL D8-MMAE (250 ng/mL) was added into 20 μL of the supernatant and then mixed with 79 μL acetonitrile. After the mixture was mixed and centrifuged, the supernatant was collected for LC-MS for quantification.
To determine total MMAE (i.e. cleaved MMAE and albumin-conjugated MMAE) in plasma and tissues, a forced degradation was done to completely release conjugated MMAE present in plasma and tissue samples.[25] Briefly, freshly prepared papain (Sigma-Aldrich) was added to plasma and tissue samples at a final concentration of 2 mg/mL, and the mixtures were incubated at 40° C. for 16 hours. The resulting samples were treated as method described above for LC-MS quantification.

[2] = Maximum tolerated dose in healthy athymic NCr nude mice; format: in vivo; conditions: MMAE equivalent dose, every 4 days, 4 doses; body weight change within 20%
Method: Maximum tolerated dose: All animal experiments were approved and performed under the guidelines by the Institutional Animal Care and Use Committee at. The University of Texas at Austin. […] Mice were injected every 4 days for a total of 4 repeated doses. Body weight and general appearance of each mice were monitored for 10 days after the last dose of injection.

MIA PaCa2 xenografts = assay: In vivo antitumor efficacy, MIA PaCa2 xenografts; design: species or system mice; conditions: for median survival of tumor-bearing mice: 0.5 mg/kg equivalent to MMAE
Method: Tumor-bearing mouse models: Eight to ten week old athymic female NCr nude mice and C57BL/6 mice (Taconic) were used to establish xenograft mouse model and syngeneic mouse model, respectively. MIA PaCa2 and mT4-2D cells were harvested from culture and resuspended in serum free cell culture media at 4×10^7 cells/mL and 1×10^7 cells/mL, respectively. The cell suspension was then gently mixed with equal volume of Matrigel® (Corning). Subsequently, 100 μL of each mixed cell suspension (MIA PaCa2 and mT4-2D) was subcutaneously inoculated into both flanks of NCr nude mice and C57BL/6 mice, respectively. After the tumors were palpable, tumor volumes were measured two times a week. The tumor volume was calculated as (1/2×length×[…]).
In vivo antitumor efficacy: Mice bearing MIA PaCa2 xenografts and syngeneic mT4-2D C57BL/6 mice were randomized when the tumor sizes were ˜150 mm^3, respectively. […] PBS and albumin vehicle controls were also administered. […] Tumor sizes were measured by a digital caliper twice a week starting from Day 0. Mice were euthanized when either tumor volume exceeded 1500 mm^3.
Statistical analysis: All of the experiments were repeated at least three times. Statistical significance was calculated using two-way ANOVA followed by Tukey's test. Survival curve was analyzed by log-rank test using GraphPad Prism 8 software.

[3] = Plasma pharmacokinetics of free and total MMAE in MIA PaCa2 tumor-bearing mice; format: in vivo; conditions: for plasma concentration of free MMAE: 10 min after single intravenous dose, 0.5 mg/kg MMAE equivalent; for AUC 0-∞ / AUMC 0-∞ / Cl / MRT / AUC 0-t: total MMAE in plasma, 0.5 mg/kg i.v.; for AUC 0-t: time 0 to 168 hours
Method: as §1, §2, §3
Briefly, freshly prepared papain (Sigma-Aldrich) was added to plasma and tissue samples at a final concentration of 2 mg/mL, and the mixtures were incubated at 40° C. for 16 hours. The resulting samples were treated as method described above for LC-MS quantification.

[4] = 24 hours after single dose, 0.5 mg/kg MMAE

Row | Substance | total MMAE in tumor [1, 4] [% ID/g] | free MMAE in the liver and kidney ([1]; 24 hours after single dose) | maximum tolerated dose [2] | median survival of tumor-bearing mice (MIA PaCa2 xenografts; every 4 days, 4 doses) [days] | plasma concentration of free MMAE [3] [ng/mL] | AUC 0-∞ [3] [µg·h/mL] | AUMC 0-∞ [3] [ng/ml*h^2] | Cl [3] | MRT [3] [h] | AUC 0-t [3] [µg·h/mL] | further results
1 | ALDC1: albumin-drug conjugate: MMAE via mc-vc-pab linker on Cys34 of recombinant human serum albumin, drug to albumin ratio of 1 | 3.8 | low levels | ~0.9 mg/kg | 114 | 49.99 ± 3.88 | 225.6026 | 1819599.5 | 2.2163E−06 (mg/kg)/(ng/ml)/h | 8.06 | 224.9654 | amount of free MMAE in tumor compared to the MMAE group ([1]; 24 hours after single dose): about 2 fold; accumulation of free MMAE in tumor [1, 4]: 2.6 % ID/g; total MMAE in liver [1, 4]: 0.2 % ID/g; higher exposure of free MMAE in tumor (AUC0-168 h) compared to ALDC3 group ([1]; tumor AUC0-168 h): ~1.5 fold; higher exposure of total MMAE in tumor (AUC0-168 h) compared to ALDC3 group ([1]; tumor AUC0-168 h): about 2 fold; more exposure of free MMAE in tumor (AUC0-168 h) compared to MMAE-MAL group ([1]; tumor AUC0-168 h): ~10%; more exposure of total MMAE in tumor (AUC0-168 h) compared to MMAE-MAL group ([1]; tumor AUC0-168 h): ~9.3%; tumor growth (MIA PaCa2 xenografts; 0.5 mg/kg MMAE equivalent, every 4 days, 4 doses): significantly delayed; tumor growth compared to the MMAE-MAL treatment arm (MIA PaCa2 xenografts; 0.5 mg/kg, at 60 days): significantly retarded tumor growth; tumors eradicated completely (mice) (MIA PaCa2 xenografts; 0.9 mg/kg (ALDC1-H), after 4 doses): 5 of the 6; survival (MIA PaCa2 xenografts; 0.9 mg/kg, at 157 days): 100%; complete eradication of the tumors in the treatment group (MIA PaCa2 xenografts; maximum tolerated dose of ALDC1): 83.33%; AUC of total MMAE in plasma as % of the ALDC3 group ([3]; 0.5 mg/kg single dose): 200%
2 | ALDC3: albumin-drug conjugate of MMAE drug-linker on TCEP-reduced recombinant serum albumin, drug to albumin ratio of 3 | 1.6 | low levels | approximately 0.5 mg/kg | 53 | 121.74 ± 13.74 | 111.0014 | 728096.2 | 4.5E−06 (mg/kg)/(ng/ml)/h | 6.55 | 110.3437 | accumulation of free MMAE in tumor compared to MMAE group ([1]; 24 hours after single dose): did not improve
